{
  "source": "patent US6613322B2",
  "about": "“Method for treating a subject suffering from conditions associated with an extracellular zinc sphingomyelinase” (The Trustees of Columbia University in the City of New York, priority 1997, dated 2003)",
  "system": "S-SMase secretion by HUVECs",
  "assay": "Cytokine regulation of S-SMase secretion by HUVECs (SMase activity in conditioned media)",
  "type": "cell-based, human",
  "conditions": "18 h, interferon-β 1000 units/ml, IL-4 10 ng/ml",
  "protocol": "FIGS. 23A-B. Cytokine regulation of S- and L-SMase of HUVECs. HUVECs were incubated for 18 h in DMEM, 0.2% BSA alone or containing human recombinant interleukin-1β (5 ng/ml) interferon-γ (1000 units/ml) interferon-β (1000 units/ml), and interleukin-4 (10 ng/ml) for 18 h. Conditioned media (FIG. 23A) and cell homogenates (FIG. 23B) from these cells were then assayed for SMase activity in the presence or absence of 0.1 mM ZnCl2, respectively.\nCells—Primary cultures of HUVEC were obtained from fresh umbilical cords and maintained in cell culture as previously described (31). Human coronary artery endothelial cells from a donor were purchased from Clonetics Corp. (San Diego, Calif.; cat. # CC-2585, Strain #3033). The cells were grown in endothelial basal media (EBM) (Clonetics) supplemented with 10% HI-FES; 10 μg endothelial cell growth supplement/ml (Sigma; cat. # E0760) and 50 μg gentamicin/ml. Primary cultures of bovine aortic endothelial, cells were established and subcultured as described previously (32). […]",
  "data": [
    {"substance": "interferon-β: human recombinant interferon-β", "values": [
      {"measurement": "accumulation of S-SMase in conditioned media (qualitative)", "value": "substantially increased"}
    ]}
  ]
}
